For the test, the target named is human FFAR1 (GPR40) (Homo sapiens, UniProt O14842). The test is described as follows: NFAT-RE-based reporter gene activity assay (Dual-Glo luciferase) for GPR40 agonistic activity in co-transfected HEK293T cells. The class given is cell-based. Particulars: 4-hour treatment, tested form: free acid.

The chains behind the UniProt entries cited, without tags or fusion partners.
UniProt O14842, whole entry: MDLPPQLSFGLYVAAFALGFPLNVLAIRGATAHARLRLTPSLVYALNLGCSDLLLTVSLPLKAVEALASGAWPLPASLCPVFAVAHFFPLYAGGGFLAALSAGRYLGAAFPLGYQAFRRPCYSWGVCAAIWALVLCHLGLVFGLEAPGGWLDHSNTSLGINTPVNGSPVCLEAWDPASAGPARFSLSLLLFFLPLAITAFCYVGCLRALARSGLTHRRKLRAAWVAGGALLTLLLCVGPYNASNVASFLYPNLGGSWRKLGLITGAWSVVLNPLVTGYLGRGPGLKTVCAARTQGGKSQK

As a reminder, the EC50 is the concentration that produces a half-maximal response. A higher EC50 goes with a need for much substance.

`COc1cccc(N2CCC(c3oc4cc(C(CC(=O)O)C5CC5)ccc4c3C(=O)NC3CC4CCC3C4)CC2)c1` (centres unmarked) gave an EC50 of 100 to 500 nM. For the same compound, the “Efficacy (%)” value (class symbols) was “†† (150 ≥ Efficacy (%) > 100)”.

(Values after patent publication EP4682145A1, “BENZOHETEROCYCLIC COMPOUND, AND PREPARATION METHOD THEREFOR AND USE THEREOF” (Cascade Pharmaceuticals, Inc., priority 2023, dated 2024).)
